Chains of the proteins cited; added tags and fusions are not shown. Lines headed by an entry give the natural chain unless they say otherwise; changes in a name come on top.
UniProt P22303: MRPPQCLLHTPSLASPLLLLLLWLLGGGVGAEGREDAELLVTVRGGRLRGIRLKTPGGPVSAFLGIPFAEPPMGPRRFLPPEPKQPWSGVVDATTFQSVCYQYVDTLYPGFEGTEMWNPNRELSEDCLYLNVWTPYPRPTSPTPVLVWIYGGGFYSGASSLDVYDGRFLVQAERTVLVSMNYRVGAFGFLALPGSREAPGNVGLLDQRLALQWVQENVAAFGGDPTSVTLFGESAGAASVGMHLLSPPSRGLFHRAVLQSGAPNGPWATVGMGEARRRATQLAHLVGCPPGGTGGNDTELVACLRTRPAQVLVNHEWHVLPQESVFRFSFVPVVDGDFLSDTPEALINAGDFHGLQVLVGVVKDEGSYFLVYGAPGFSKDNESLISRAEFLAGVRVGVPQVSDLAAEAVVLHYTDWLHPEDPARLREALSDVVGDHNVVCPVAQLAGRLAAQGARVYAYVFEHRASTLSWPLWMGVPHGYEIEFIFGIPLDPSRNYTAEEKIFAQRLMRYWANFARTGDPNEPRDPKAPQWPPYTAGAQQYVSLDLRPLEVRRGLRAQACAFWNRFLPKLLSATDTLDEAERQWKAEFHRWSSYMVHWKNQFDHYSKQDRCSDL

In ChEMBL document CHEMBL2163249, “Exploration of natural compounds as sources of new bifunctional scaffolds targeting cholinesterases and beta amyloid aggregation: the case of chelerythrine” (Bioorg Med Chem, 2012):

Target: Acetylcholinesterase (Homo sapiens, UniProt P22303)

COc1ccc2cc3[n+](cc2c1OC)CCc1cc2c(cc1-3)OCO2 [BERBERINE CHLORIDE]
IC50: 0.61 µM
